Data from article PMC4919072, “Identification and Biochemical Properties of Two New Acetylcholinesterases in the Pond Wolf Spider (Pardosa pseudoannulata)” (2016).

By UniProt entry, the sequences of proteins in these tests, tags left out. Residues count along the entry.
UniProt A0A1B1FIZ1, 28-554 limits assumed: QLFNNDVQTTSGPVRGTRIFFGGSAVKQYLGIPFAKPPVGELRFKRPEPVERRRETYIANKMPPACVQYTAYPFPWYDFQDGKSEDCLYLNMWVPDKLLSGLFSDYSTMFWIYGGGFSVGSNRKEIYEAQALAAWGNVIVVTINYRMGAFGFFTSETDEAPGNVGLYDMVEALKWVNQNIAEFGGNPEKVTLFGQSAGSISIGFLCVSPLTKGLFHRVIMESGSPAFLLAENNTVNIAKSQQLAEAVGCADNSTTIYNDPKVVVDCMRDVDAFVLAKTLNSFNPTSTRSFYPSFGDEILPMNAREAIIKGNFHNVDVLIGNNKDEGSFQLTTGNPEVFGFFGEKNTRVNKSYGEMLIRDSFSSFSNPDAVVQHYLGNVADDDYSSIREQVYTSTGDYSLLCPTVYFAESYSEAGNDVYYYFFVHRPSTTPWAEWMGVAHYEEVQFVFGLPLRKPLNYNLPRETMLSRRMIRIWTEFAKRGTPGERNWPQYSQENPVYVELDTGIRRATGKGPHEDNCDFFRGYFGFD
UniProt A0A1B1FIW0, 21-541 limits assumed: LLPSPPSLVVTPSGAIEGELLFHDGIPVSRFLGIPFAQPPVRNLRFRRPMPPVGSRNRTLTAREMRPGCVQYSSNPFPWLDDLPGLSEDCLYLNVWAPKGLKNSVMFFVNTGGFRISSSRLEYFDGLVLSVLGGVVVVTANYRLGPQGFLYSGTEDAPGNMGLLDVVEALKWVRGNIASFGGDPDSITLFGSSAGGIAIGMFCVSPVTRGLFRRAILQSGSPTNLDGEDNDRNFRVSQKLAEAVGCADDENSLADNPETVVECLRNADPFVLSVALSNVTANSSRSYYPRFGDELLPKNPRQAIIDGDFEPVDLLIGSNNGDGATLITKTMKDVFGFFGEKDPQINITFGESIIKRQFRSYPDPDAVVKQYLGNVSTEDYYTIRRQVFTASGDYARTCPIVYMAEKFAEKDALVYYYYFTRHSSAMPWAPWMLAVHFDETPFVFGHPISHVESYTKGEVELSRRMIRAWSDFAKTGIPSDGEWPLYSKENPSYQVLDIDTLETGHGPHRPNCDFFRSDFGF
UniProt A0A1B1FIW2, 23-545 limits assumed: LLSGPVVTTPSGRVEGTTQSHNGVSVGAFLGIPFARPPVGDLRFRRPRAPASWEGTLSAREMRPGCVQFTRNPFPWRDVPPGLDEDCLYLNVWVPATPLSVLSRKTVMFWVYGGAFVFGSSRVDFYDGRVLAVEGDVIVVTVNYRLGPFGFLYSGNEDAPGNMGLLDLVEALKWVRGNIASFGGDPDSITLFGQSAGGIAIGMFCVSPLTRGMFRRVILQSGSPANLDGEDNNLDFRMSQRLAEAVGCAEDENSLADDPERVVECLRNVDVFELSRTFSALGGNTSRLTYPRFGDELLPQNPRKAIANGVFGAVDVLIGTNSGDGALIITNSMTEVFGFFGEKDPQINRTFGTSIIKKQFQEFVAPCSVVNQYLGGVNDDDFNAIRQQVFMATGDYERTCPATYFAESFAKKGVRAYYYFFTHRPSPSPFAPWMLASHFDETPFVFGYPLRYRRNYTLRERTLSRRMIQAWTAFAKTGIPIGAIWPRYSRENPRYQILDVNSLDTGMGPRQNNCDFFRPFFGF
UniProt V5QQC6, 26-608 limits assumed: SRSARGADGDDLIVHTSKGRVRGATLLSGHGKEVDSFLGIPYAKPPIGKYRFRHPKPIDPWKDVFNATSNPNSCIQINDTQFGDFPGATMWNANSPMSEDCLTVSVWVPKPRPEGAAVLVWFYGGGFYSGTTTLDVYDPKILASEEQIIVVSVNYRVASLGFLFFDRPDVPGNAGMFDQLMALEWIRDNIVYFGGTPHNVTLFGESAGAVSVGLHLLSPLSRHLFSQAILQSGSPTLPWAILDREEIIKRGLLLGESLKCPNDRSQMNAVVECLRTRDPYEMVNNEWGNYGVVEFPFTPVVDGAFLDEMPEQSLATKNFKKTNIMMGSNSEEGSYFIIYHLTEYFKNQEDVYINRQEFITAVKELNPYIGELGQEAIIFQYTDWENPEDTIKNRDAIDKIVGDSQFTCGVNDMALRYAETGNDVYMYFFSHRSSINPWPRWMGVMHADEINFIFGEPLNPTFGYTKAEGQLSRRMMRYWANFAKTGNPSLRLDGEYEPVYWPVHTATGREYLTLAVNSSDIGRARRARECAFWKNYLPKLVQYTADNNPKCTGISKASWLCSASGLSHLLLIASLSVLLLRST

Assays:
PpAChE2 [1] = target: T1, PpAChE2 (Pardosa pseudoannulata, UniProt A0A1B1FIZ1); assay: Inhibition of recombinant PpAChE2 enzyme activity (IC50, ki)
PpAChE3 [2] = target: T2, PpAChE3 (Pardosa pseudoannulata, UniProt A0A1B1FIW0); assay: Inhibition of recombinant PpAChE3 enzyme activity (IC50, ki)
PpAChE4 [3] = target: T3, PpAChE4 (Pardosa pseudoannulata, UniProt A0A1B1FIW2); assay: Inhibition of recombinant PpAChE4 enzyme activity (IC50, ki); conditions: for Inhibition kinetics (ki), bimolecular rate constant: ATC hydrolysis
PpAChE1 [4] = target: T4, PpAChE1 (Pardosa pseudoannulata, UniProt V5QQC6); assay: Inhibition of recombinant PpAChE1 enzyme activity (IC50, ki)
PpAChE1 [5] = target: T4, PpAChE1; assay: Kinetics of substrate hydrolysis by recombinant PpAChE1; conditions: for Vmax: optimal pH 7.0; for Vmax ratio vs PTC: Vmax of labelled substrate divided by Vmax of PTC
PpAChE2 [6] = target: T1, PpAChE2; assay: Kinetics of substrate hydrolysis by recombinant PpAChE2; conditions: for Vmax ratio vs PTC: Vmax of labelled substrate divided by Vmax of PTC
PpAChE3 [7] = target: T2, PpAChE3; assay: Kinetics of substrate hydrolysis by recombinant PpAChE3; conditions: for Vmax ratio vs PTC: Vmax of labelled substrate divided by Vmax of PTC
PpAChE4 [8] = target: T3, PpAChE4; assay: Kinetics of substrate hydrolysis by recombinant PpAChE4; conditions: for Vmax: optimal pH 7.5; for Vmax ratio vs PTC: Vmax of labelled substrate divided by Vmax of PTC
[9] = ATC hydrolysis, not completely inhibited even at very high concentrations
[10] = Vmax of labelled substrate divided by Vmax of BTC

Compound	Inhibition kinetics (ki), bimolecular rate constant (PpAChE2 [1]; ATC hydrolysis)	Inhibition kinetics (ki), bimolecular rate constant (PpAChE3 [2]; PpAChE3, ATC hydrolysis)	Inhibition kinetics (ki), bimolecular rate constant (PpAChE4 [3]; PpAChE4)	Inhibition kinetics (ki), bimolecular rate constant (PpAChE1 [4]; ATC hydrolysis)	Vmax (PpAChE1 [5])	Vmax (PpAChE2 [6]; optimal pH 7.0) [a nmol/mg•min]	Vmax (PpAChE3 [7]; optimal pH 8.0)	Vmax (PpAChE4 [8])	further results
CCOP(=O)(OCC)Oc1ccc([N+](=O)[O-])cc1	0.13±0.03d ×10^−6 M^-1 min^-1	8.01±1.13a ×10^−6 M^-1 min^-1	0.95±0.14b ×10^−6 M^-1 min^-1	0.43±0.06c ×10^−6 M^-1 min^-1					
CCC(=O)SCC[N+](C)(C)C					76.2±9.2c nmol/mg•min	156.8±21.3	106.2±15.1b nmol/mg•min	49.7±8.4d nmol/mg•min	Km (PpAChE2 [6]; optimal pH 7.0): 4500 µM; Km (PpAChE3 [7]; optimal pH 8.0): 504 µM
CC(C)NP(=O)(NC(C)C)OP(=O)(NC(C)C)NC(C)C									Inhibition against ATC hydrolysis (in words) (PpAChE2 [1]; [9]): very weak inhibition; pIC50 (PpAChE2 [1]; read-out: IC50 value, BTC hydrolysis activity, BTC hydrolysis): > 4.00; Inhibition against ATC hydrolysis (in words) (PpAChE3 [2]; PpAChE3, ATC hydrolysis, not completely inhibited even at very high concentrations): very weak inhibition; pIC50 (PpAChE3 [2]; read-out: IC50 on BTC hydrolysis, PpAChE3 expressed in Sf9 cells, BTC hydrolysis, 10 min incubation with inhibitor): < 3.70; pIC50 (PpAChE4 [3]; read-out: IC50 on BTC hydrolysis, PpAChE4 expressed in Sf9 cells, BTC hydrolysis, 10 min incubation with inhibitor): < 3.70; Inhibition against ATC hydrolysis (in words) (PpAChE1 [4]; [9]): very weak inhibition
CC(=O)SCC[N+](C)(C)C					112.6±8.8b nmol/mg•min	253.9±20.4	124.7±11.5b nmol/mg•min	86.6±9.7c nmol/mg•min	Vmax ratio vs BTC (PpAChE1 [5]; [10]): 1.18; Vmax ratio vs PTC (PpAChE1 [5]): 1.48; Vmax ratio vs BTC (PpAChE2 [6]; [10]): 1.09; Vmax ratio vs PTC (PpAChE2 [6]): 1.62; Vmax^ATC/Vmax^BTC ratio (PpAChE3 [7]; ATC vs BTC): 3.1 fold; Vmax ratio vs BTC (PpAChE3 [7]; [10]): 3.09; Vmax ratio vs PTC (PpAChE3 [7]): 1.17; Vmax ratio vs BTC (PpAChE4 [8]; [10]): 0.82; Vmax ratio vs PTC (PpAChE4 [8]): 1.74
CCC(C)c1ccccc1OC(=O)NC (centres unmarked)	0.30±0.05d ×10^−6 M^-1 min^-1	2.43±0.52c ×10^−6 M^-1 min^-1	3.16±0.27b ×10^−6 M^-1 min^-1	14.69±0.89a ×10^−6 M^-1 min^-1					
CCOP(=O)(OCC)Oc1cc(C)nc(C(C)C)n1	0.08±0.03c ×10^−6 M^-1 min^-1	3.55±0.32a ×10^−6 M^-1 min^-1	1.13±0.18b ×10^−6 M^-1 min^-1	0.13±0.05c ×10^−6 M^-1 min^-1					
CNC(=O)Oc1cccc2ccccc12	0.12±0.03d ×10^−6 M^-1 min^-1	3.62±0.44b ×10^−6 M^-1 min^-1	5.88±0.92a ×10^−6 M^-1 min^-1	1.13±0.05c ×10^−6 M^-1 min^-1					
C=CC[N+](C)(C)c1ccc(CCC(=O)CCc2ccc([N+](C)(C)CC=C)cc2)cc1									Difference in IC50 value between BW284C51 (ATC hydrolysis) and ISO-OMPA (BTC hydrolysis) (PpAChE2 [1]; more sensitive to BW284C51): ≥ 8.5 fold; Difference in IC50 value between BW284C51 (ATC hydrolysis) and ISO-OMPA (BTC hydrolysis) (PpAChE3 [2]; PpAChE3, more sensitive to BW284C51): ≥ 8.5 fold; Difference in IC50 value between BW284C51 (ATC hydrolysis) and ISO-OMPA (BTC hydrolysis) (PpAChE4 [3]; PpAChE4, more sensitive to BW284C51): ≥ 8.5 fold; Difference in IC50 value between BW284C51 (ATC hydrolysis) and ISO-OMPA (BTC hydrolysis) (PpAChE1 [4]; more sensitive to BW284C51): ≥ 8.5 fold
CCCC(=O)SCC[N+](C)(C)C					95.4±12.8b nmol/mg•min	233.9±16.5	40.3±5.6c nmol/mg•min	105.5±8.9b nmol/mg•min	Vmax ratio vs PTC (PpAChE1 [5]): 1.25; Vmax ratio vs PTC (PpAChE2 [6]): 1.49; Vmax ratio vs PTC (PpAChE3 [7]): 0.38; Vmax ratio vs PTC (PpAChE4 [8]): 2.12

pIC50: −log10 of the molar value.
